The values that follow come from paper PMC3638399.

This assay addresses G143X MjHSP16.5 (HSP16.5-G143STOP, the IXI motif deletion construct) (Methanocaldococcus jannaschii) (UniProt Q57733). Put plainly: SEC; Superose 6 column, room temperature, 20 mM Tris-HCl pH 7.4 or 10 mM HEPES pH 7.4 and 100 mM NaCl; about 5 mg of purified protein; size from elution volume against mass standards.

The substance “G143X MjHSP16.5 (HSP16.5-G143STOP, the IXI motif deletion construct) (from UniProt Q57733 1-142) (domain or fragment)” displayed a stoichiometry N of 2.

As a reminder, the stoichiometry N is a count of units in the complex or per binding partner.
